Values of other authors in article PMC8048568, “Synthesis of σ Receptor Ligands with a Spirocyclic System Connected with a Tetrahydroisoquinoline Moiety via Different Linkers” (Chemmedchem, 2021).

Molecular target: σ2 receptor
Conditions: read-out: K i σ2; cited from earlier work

COc1cccc2c1CCCC2CCCN1CCN(C2CCCCC2)CC1 (stereo not shown) [PB28]
Ki: 0.68 nM
